Test results: paper doi:10.1101/2023.10.19.563203

Amino acid sequences for entries named in this document (tags omitted). A change or cut given only in a name is not applied to a line headed by its entry. Residues count along the entry.
UniProt P02679: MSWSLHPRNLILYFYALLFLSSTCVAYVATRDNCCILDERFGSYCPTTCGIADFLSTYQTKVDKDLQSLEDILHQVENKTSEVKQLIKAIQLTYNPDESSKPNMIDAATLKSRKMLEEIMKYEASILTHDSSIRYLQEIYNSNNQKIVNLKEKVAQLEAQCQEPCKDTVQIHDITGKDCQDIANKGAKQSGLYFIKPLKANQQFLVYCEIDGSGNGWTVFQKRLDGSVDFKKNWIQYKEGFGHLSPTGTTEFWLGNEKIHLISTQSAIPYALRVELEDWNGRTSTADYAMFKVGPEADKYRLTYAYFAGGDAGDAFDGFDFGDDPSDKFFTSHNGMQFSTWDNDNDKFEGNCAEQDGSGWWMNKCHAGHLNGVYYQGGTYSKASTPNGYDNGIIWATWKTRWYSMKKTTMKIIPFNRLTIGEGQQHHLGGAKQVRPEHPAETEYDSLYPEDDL
UniProt P02745, 23-245: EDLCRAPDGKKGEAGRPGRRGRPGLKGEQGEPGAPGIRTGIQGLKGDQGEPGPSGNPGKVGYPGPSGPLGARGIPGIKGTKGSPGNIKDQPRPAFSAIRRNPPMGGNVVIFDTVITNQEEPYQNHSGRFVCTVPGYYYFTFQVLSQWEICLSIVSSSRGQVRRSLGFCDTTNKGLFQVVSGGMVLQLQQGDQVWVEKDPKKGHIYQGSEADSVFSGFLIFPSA
C1q, UniProt P02746, 28-253: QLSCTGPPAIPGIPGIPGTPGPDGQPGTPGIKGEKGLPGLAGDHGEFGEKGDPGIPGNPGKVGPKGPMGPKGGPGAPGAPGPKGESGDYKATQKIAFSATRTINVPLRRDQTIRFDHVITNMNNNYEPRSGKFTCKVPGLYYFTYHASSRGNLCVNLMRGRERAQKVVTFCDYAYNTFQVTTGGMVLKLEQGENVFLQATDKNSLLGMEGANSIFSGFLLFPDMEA
C1q, UniProt P02747, 29-245: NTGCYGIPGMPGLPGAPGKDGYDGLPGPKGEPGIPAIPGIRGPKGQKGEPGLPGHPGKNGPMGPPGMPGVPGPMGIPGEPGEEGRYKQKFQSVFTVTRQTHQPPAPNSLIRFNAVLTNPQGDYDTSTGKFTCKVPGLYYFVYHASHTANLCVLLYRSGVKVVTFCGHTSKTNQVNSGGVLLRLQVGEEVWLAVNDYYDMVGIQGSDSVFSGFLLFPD

How the values were obtained:
fibrin (human) [1] = target: fibrin (human) (UniProt P02679); assay: co-sedimentation
fibrin (human) [2] = target: fibrin (human) (UniProt P02679); assay: radioligand binding

Q: What does the source list for “C1q (from UniProt P02745 23-245; P02746 28-253; P02747 29-245) (complex)”?
A: percent bound after 16 h, after 5 M urea wash (Table 1) (fibrin (human) [1]): 28.5%; percent bound after 16 h, non-denaturing wash (fibrin (human) [1]): 24%; percent bound at 30 min, after 5 M urea wash (fibrin (human) [1]): 11%; percent bound at 30 min, non-denaturing wash (fibrin (human) [1]): 13%; percent bound at 960 min, after 5 M urea wash (fibrin (human) [1]): 17.6%; percent bound to plasma clots at 70 mM salt (fibrin (human) [1]): 2.5%; binding at 75 mM NaCl as percent of that at 20 mM NaCl (fibrin (human) [2]): < 50%; percent of input bound (500,000 cpm/well) (fibrin (human) [2]): 2.4%
